Experimental data published in ChEMBL document CHEMBL4270596, “Discovery of a potent non-oxime reactivator of nerve agent inhibited human acetylcholinesterase” (2018).
Calls of active or inactive are those of the source. The rule behind the calls is not given here.

Sequences of proteins named here, by UniProt entry; tags and fusion partners are left off. A change or cut given only in a name is not applied to a line headed by its entry.
UniProt P22303: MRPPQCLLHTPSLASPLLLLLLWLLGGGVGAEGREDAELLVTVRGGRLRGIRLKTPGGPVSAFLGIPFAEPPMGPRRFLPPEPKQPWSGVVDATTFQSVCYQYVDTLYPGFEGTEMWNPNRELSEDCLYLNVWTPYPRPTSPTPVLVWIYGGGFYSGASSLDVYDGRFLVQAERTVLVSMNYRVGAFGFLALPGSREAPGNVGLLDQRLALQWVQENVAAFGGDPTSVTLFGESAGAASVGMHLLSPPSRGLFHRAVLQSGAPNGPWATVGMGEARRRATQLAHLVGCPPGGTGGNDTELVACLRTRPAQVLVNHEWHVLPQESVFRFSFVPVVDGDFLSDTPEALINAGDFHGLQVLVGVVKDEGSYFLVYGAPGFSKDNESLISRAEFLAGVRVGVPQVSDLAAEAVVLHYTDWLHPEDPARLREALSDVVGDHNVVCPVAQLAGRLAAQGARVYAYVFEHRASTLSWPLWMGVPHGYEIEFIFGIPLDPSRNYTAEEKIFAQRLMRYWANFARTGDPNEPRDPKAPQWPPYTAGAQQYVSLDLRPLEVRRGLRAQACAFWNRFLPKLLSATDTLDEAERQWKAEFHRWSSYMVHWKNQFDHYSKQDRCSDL

Experiments:
[1] = molecular target: Acetylcholinesterase (Homo sapiens) (UniProt P22303); assay: Reactivation of GA-induced inhibition of AChE in human erythrocyte membranes at 10 to 1000 uM using acetylthiocholine as substrate measured after 2 to 60 mins by Ellman's method
[2] = molecular target: Acetylcholinesterase (Homo sapiens) (UniProt P22303); assay: Reactivation of PXE-induced inhibition of AChE in human erythrocyte membranes at 10 to 1000 uM using acetylthiocholine as substrate measured after 2 to 60 mins by Ellman's method
[3] = molecular target: Acetylcholinesterase (Homo sapiens) (UniProt P22303); assay: Reactivation of GF-induced inhibition of AChE in human erythrocyte membranes at 10 to 1000 uM using acetylthiocholine as substrate measured after 2 to 60 mins by Ellman's method
[4] = molecular target: Acetylcholinesterase (Homo sapiens) (UniProt P22303); assay: Reactivation of GB-induced inhibition of AChE in human erythrocyte membranes at 10 to 1000 uM using acetylthiocholine as substrate measured after 2 to 60 mins by Ellman's method
[5] = molecular target: Acetylcholinesterase (Homo sapiens) (UniProt P22303); assay: Reactivation of VX-induced inhibition of AChE in human erythrocyte membranes at 1000 uM using acetylthiocholine as substrate measured after 20 mins by Ellman's method
[6] = molecular target: Acetylcholinesterase (Homo sapiens) (UniProt P22303); assay: Reactivation of PXE-induced inhibition of AChE in human erythrocyte membranes at 1000 uM using acetylthiocholine as substrate measured after 20 mins by Ellman's method
[7] = molecular target: Acetylcholinesterase (Homo sapiens) (UniProt P22303); assay: Reactivation of VX-induced inhibition of AChE in human erythrocyte membranes at 10 to 1000 uM using acetylthiocholine as substrate measured after 2 to 60 mins by Ellman's method
[8] = molecular target: Acetylcholinesterase (Homo sapiens) (UniProt P22303); assay: Reactivation of VX-induced inhibition of AChE in human erythrocyte membranes at 1000 uM using acetylthiocholine as substrate measured after 60 mins by Ellman's method relative to control; parameters: scale not given: the % may be the effect or the level left
[9] = molecular target: Acetylcholinesterase (Homo sapiens) (UniProt P22303); assay: Reactivation of GB-induced inhibition of AChE in human erythrocyte membranes at 1000 uM using acetylthiocholine as substrate measured after 60 mins by Ellman's method relative to control; parameters: scale not given: the % may be the effect or the level left
[10] = molecular target: Acetylcholinesterase (Homo sapiens) (UniProt P22303); assay: Reactivation of GF-induced inhibition of AChE in human erythrocyte membranes at 1000 uM using acetylthiocholine as substrate measured after 60 mins by Ellman's method relative to control; parameters: scale not given: the % may be the effect or the level left
[11] = molecular target: Acetylcholinesterase (Homo sapiens) (UniProt P22303); assay: Reactivation of PXE-induced inhibition of AChE in human erythrocyte membranes at 1000 uM using acetylthiocholine as substrate measured after 60 mins by Ellman's method relative to control; parameters: scale not given: the % may be the effect or the level left
[12] = molecular target: Acetylcholinesterase (Homo sapiens) (UniProt P22303); assay: Reactivation of PXE-induced inhibition of AChE in human erythrocyte membranes at 10 uM using acetylthiocholine as substrate measured after 60 mins by Ellman's method relative to control; parameters: scale not given: the % may be the effect or the level left
[13] = molecular target: Acetylcholinesterase (Homo sapiens) (UniProt P22303); assay: Reactivation of VX-induced inhibition of AChE in human erythrocyte membranes assessed as pseudo first-order rate constant at 100 uM using acetylthiocholine as substrate measured after 2 to 60 mins by Ellman's method
[14] = molecular target: Acetylcholinesterase (Homo sapiens) (UniProt P22303); assay: Reactivation of GF-induced inhibition of AChE in human erythrocyte membranes assessed as pseudo first-order rate constant at 10 uM using acetylthiocholine as substrate measured after 2 to 60 mins by Ellman's method
[15] = molecular target: Acetylcholinesterase (Homo sapiens) (UniProt P22303); assay: Reactivation of GF-induced inhibition of AChE in human erythrocyte membranes assessed as pseudo first-order rate constant at 100 uM using acetylthiocholine as substrate measured after 2 to 60 mins by Ellman's method
[16] = molecular target: Acetylcholinesterase (Homo sapiens) (UniProt P22303); assay: Reactivation of GA-induced inhibition of AChE in human erythrocyte membranes assessed as pseudo first-order rate constant at 100 uM using acetylthiocholine as substrate measured after 2 to 60 mins by Ellman's method
[17] = molecular target: Acetylcholinesterase (Homo sapiens) (UniProt P22303); assay: Reactivation of GB-induced inhibition of AChE in human erythrocyte membranes assessed as pseudo first-order rate constant at 100 uM using acetylthiocholine as substrate measured after 2 to 60 mins by Ellman's method
[18] = molecular target: Acetylcholinesterase (Homo sapiens) (UniProt P22303); assay: Reactivation of VX-induced inhibition of AChE in human erythrocyte membranes at 10 uM using acetylthiocholine as substrate measured after 60 mins by Ellman's method relative to control; parameters: scale not given: the % may be the effect or the level left
[19] = molecular target: Acetylcholinesterase (Homo sapiens) (UniProt P22303); assay: Reactivation of VX-induced inhibition of AChE in human erythrocyte membranes assessed as pseudo first-order rate constant at 10 uM using acetylthiocholine as substrate measured after 2 to 60 mins by Ellman's method
[20] = molecular target: Acetylcholinesterase (Homo sapiens) (UniProt P22303); assay: Reactivation of GB-induced inhibition of AChE in human erythrocyte membranes assessed as pseudo first-order rate constant at 10 uM using acetylthiocholine as substrate measured after 2 to 60 mins by Ellman's method
[21] = molecular target: Acetylcholinesterase (Homo sapiens) (UniProt P22303); assay: Reactivation of PXE-induced inhibition of AChE in human erythrocyte membranes assessed as pseudo first-order rate constant at 100 uM using acetylthiocholine as substrate measured after 2 to 60 mins by Ellman's method
[22] = molecular target: Acetylcholinesterase (Homo sapiens) (UniProt P22303); assay: Reactivation of GF-induced inhibition of AChE in human erythrocyte membranes at 10 uM using acetylthiocholine as substrate measured after 60 mins by Ellman's method relative to control; parameters: scale not given: the % may be the effect or the level left
[23] = molecular target: Acetylcholinesterase (Homo sapiens) (UniProt P22303); assay: Reactivation of PXE-induced inhibition of AChE in human erythrocyte membranes assessed as pseudo first-order rate constant at 10 uM using acetylthiocholine as substrate measured after 2 to 60 mins by Ellman's method
[24] = molecular target: Acetylcholinesterase (Homo sapiens) (UniProt P22303); assay: Reactivation of GB-induced inhibition of AChE in human erythrocyte membranes at 10 uM using acetylthiocholine as substrate measured after 60 mins by Ellman's method relative to control; parameters: scale not given: the % may be the effect or the level left
[25] = molecular target: Acetylcholinesterase (Homo sapiens) (UniProt P22303); assay: Reactivation of VX-induced inhibition of AChE in human erythrocyte membranes assessed as residual activity at 100 uM using acetylthiocholine as substrate measured within 10 mins by Ellman's method relative to control
[26] = molecular target: Acetylcholinesterase (Homo sapiens) (UniProt P22303); assay: Reactivation of VX-induced inhibition of AChE in human erythrocyte membranes assessed as residual activity at 10 uM using acetylthiocholine as substrate measured within 20 mins by Ellman's method relative to control
[27] = molecular target: Acetylcholinesterase (Homo sapiens) (UniProt P22303); assay: Reactivation of GA-induced inhibition of AChE in human erythrocyte membranes assessed as pseudo first-order rate constant at 10 uM using acetylthiocholine as substrate measured after 2 to 60 mins by Ellman's method

SMILES | Activity [1] | Activity [2] | Activity [3] | Activity [4] | Activity [5] | Activity [6] | Activity [7] | other results
CN(C)Cc1cc(N)ccc1O | inactive | Active | Active | Active | Active | Active | Active | 
Nc1ccc(O)c(CN2CCCCC2)c1 | inactive | inactive | inactive | inactive | Active | Active | inactive | 
Nc1ccc(O)c(CN2CCOCC2)c1 | inactive | inactive | inactive | inactive |  |  | inactive | 
CCCCCCN(C)Cc1cc(N)ccc1O | inactive | Active | Active | Active |  |  | Active | 
CCCCN(C)Cc1cc(N)ccc1O | inactive | Active | Active | Active | Active | Active | Active | 
Nc1ccc(O)c(Cn2ccnc2)c1 | inactive |  |  |  | Active | Active |  | Activity [8]: 40 to 100%; Activity [9]: 40 to 100%; Activity [10]: 40 to 100%; Activity [11]: < 100%
CNCc1cc(N)ccc1O | inactive | Active | Active | Active |  |  | Active | 
CCCN(CCC)Cc1cc(N)ccc1O | inactive |  |  |  | Active | Active |  | 
CCCCCN(C)Cc1cc(N)ccc1O | inactive | Active | Active | Active |  |  | Active | 
CCCN(C)Cc1cc(N)ccc1O | inactive | Active | Active | Active |  |  | Active | 
Nc1ccc(O)c(Cn2cccn2)c1 | inactive |  |  |  |  |  |  | 
Nc1ccc(O)c(CN2CCCC2)c1 | inactive | Active | Active | Active |  |  | Active | Activity [12]: 50 to 100%; K [13]: 0.245 min⁻¹; K [14]: 0.025 min⁻¹; K [15]: 0.174 min⁻¹; K [16]: inactive; K [17]: 0.205 min⁻¹; Activity [18]: 50 to 100%; K [19]: 0.02 min⁻¹; K [20]: 0.025 min⁻¹; K [21]: 0.581 min⁻¹; Activity [22]: 50 to 100%; K [23]: 0.19 min⁻¹; Activity [24]: 50 to 100%; Activity [25]: 100%; Activity [26]: 100%; K [27]: inactive
CCN(CC)Cc1cc(N)ccc1O | inactive |  |  |  |  |  |  | Activity [12]: < 25%; K [13]: 0.047 min⁻¹; K [14]: 0.001 min⁻¹; K [15]: 0.03 min⁻¹; K [16]: inactive; K [17]: 0.008 min⁻¹; Activity [18]: < 25%; K [19]: 0.01 min⁻¹; K [20]: 0.002 min⁻¹; K [21]: 0.114 min⁻¹; Activity [22]: < 25%; K [23]: 0.01 min⁻¹; Activity [24]: < 25%; K [27]: inactive
CCN(C)Cc1cc(N)ccc1O | inactive | Active | Active | Active | Active | Active | Active | 
